{"source": "patent US7094798B1", "about": "“Inhibitors of checkpoint kinases (Wee1 and Chk1)” (Pfizer Inc, priority 2002, dated 2006)", "biological_target": "T1, human Wee1 kinase aa215-647 (Homo sapiens, UniProt P30291)", "T1 construct": "human Wee1 kinase aa215-647; purchased Onyx Pharmaceuticals; host or cells: baculovirus protein expression system", "T1 sequence (P30291 215-646 limits assumed)": "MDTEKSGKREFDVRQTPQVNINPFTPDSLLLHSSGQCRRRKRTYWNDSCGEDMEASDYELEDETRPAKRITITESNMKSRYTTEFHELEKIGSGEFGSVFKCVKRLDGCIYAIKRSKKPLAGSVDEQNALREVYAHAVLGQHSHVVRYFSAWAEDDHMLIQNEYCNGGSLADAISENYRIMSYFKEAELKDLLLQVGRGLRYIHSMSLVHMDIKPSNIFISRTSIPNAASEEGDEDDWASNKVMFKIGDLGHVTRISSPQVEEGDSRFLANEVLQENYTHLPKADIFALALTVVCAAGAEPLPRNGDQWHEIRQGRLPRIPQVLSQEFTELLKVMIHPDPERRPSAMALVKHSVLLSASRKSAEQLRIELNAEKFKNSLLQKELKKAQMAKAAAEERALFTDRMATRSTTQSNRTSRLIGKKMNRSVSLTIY", "assay": "Wee1 inhibition filter binding assay (OY)", "format": "biochemical", "details": "isolated Wee1 kinase, Poly Ornithine:Tyrosine (4:1) substrate; read-out: WEE1OY IC50", "note": "pIC50: −log10 of the molar value."}
{"smiles": "CN(C)CCNC(=O)CCn1c2ccc(O)cc2c2c3c(c(-c4ccccc4)cc21)C(=O)NC3=O", "note": "[Example 214, N-[2-(Dimethylamino)ethyl]-3-(9-hydroxy-1,3-dioxo-4-phenyl-2,3-dihydropyrrolo[3,4-c]carbazol-6 (1H)-yl)propanamide]", "values": [{"measurement": "pIC50", "result": 6.53}]}
